Amino acid sequences for entries named in this document (tags omitted). A change or cut given only in a name is not applied to a line headed by its entry.
UniProt P11388: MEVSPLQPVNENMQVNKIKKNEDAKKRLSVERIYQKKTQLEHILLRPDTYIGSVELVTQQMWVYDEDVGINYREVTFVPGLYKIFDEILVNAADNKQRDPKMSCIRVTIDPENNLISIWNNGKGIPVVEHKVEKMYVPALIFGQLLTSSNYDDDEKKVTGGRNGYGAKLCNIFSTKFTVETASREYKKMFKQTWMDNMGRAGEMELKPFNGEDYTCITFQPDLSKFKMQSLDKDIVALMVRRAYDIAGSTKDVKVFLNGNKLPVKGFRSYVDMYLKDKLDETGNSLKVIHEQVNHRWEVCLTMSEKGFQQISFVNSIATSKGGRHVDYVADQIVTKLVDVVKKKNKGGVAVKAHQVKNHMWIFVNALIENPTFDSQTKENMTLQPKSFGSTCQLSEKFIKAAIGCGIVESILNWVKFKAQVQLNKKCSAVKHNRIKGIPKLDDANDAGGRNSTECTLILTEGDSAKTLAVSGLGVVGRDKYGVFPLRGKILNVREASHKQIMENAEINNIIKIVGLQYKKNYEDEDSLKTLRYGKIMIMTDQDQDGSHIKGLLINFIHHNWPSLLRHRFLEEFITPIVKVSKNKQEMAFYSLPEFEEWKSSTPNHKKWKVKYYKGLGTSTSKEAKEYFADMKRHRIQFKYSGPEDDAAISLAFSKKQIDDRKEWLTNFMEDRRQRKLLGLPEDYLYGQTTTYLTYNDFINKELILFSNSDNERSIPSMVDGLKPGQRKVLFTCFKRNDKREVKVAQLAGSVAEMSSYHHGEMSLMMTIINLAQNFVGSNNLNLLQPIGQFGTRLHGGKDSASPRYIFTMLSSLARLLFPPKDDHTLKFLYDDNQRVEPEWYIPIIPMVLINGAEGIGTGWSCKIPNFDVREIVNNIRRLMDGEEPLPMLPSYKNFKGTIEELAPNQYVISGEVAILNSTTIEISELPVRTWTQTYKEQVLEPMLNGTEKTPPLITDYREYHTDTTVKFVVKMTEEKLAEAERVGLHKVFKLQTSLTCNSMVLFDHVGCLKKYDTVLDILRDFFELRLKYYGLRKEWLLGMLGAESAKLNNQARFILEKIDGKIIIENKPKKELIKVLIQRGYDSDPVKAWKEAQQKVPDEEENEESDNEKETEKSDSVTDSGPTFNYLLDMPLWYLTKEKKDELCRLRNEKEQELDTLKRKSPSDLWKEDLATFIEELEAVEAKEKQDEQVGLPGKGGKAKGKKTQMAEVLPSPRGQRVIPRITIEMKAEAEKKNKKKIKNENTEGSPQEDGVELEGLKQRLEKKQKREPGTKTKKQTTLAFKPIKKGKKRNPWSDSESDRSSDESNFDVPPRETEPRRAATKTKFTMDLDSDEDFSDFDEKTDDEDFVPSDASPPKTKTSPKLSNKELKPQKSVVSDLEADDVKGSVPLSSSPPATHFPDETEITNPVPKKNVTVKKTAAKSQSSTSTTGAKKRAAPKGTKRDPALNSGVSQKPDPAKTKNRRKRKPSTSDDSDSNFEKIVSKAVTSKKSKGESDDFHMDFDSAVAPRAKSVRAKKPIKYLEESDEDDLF

In US10314847B2, “Scalarane sesterterpenoid, pharmaceutical composition and topoisomerase II and Hsp90 inhibitor for treating cancer, and use and preparation method thereof” (NATIONAL DONG HWA UNIVERSITY, priority 2017, dated 2019):

Target: T1, human topoisomerase II (Homo sapiens, UniProt P11388)
T1 construct: purchased Topogen
Assay: Assay of topoisomerase II catalytic inhibitors and poisons (cell-free pHOT1 DNA relaxation/cleavage)
Assay type: biochemical
Conditions: 500 μM, positive control
Procedure: Assay of Topoisomerase II Catalytic Inhibitors and Poisons:
The assay was performed as described in the literatures (Shih et al., Marine Drugs, 2014, 12(5):3072-3090 and Shih et al., Marine drugs, 2015, 13(5):3132-3153). Standard relaxation reaction mixtures (20 μL) containing 50 mM Tris-HCl (pH 8.0), 10 mM MgCl2, 200 mM potassium glutamate, 10 mM dithiothreitol, 50 μg/mL bovine serum albumin (BSA), 1 mM ATP, 0.3 μg of pHOT1 plasmid DNA, 2 units of human topoisomerase II (Topogen, Columbus, Ohio, U.S.A.), and the indicated concentrations of etoposide and the compounds 1 to 3 were incubated at 37° C. for 30 minutes. Reactions were terminated by adding 2 μL of 10% SDS to facilitate trapping the enzyme in a cleavage complex, followed by the addition of 2.5 μL of proteinase K (50 μg/mL) to digest the bound protein (incubated at 37° C. for 15 minutes) and finally by adding 0.1 volume of the sample loading dye. The DNA products were analyzed via electrophoresis through vertical 2% agarose gels at 2 voltage/cm in 0.5×TAE buffer. Gels were stained with ethidium bromide (EtBr) and photographed using an Eagle Eye II system (Stratagene, La Jolla, Calif., U.S.A.). The quantitative analysis of the DNA Topo II activity was performed. […]

## COc1cc([C@@H]2c3cc4c(cc3[C@@H](O[C@@H]3O[C@@H]5CO[C@@H](C)O[C@H]5[C@H](O)[C@H]3O)[C@H]3COC(=O)[C@H]23)OCO4)cc(OC)c1O [etoposide, reference compound]
  DNA product with supercoiled pHOT1 plasmid DNA (topo II poison): linear DNA strand was observed
